Results from patent USRE28949E, “2-Chloroethane-(thiono)-phosphonic acid esters” (dated 1976).

What was measured:
[1] = test system: Wheat plants; assay: Growth Inhibition/Wheat; conditions: average length; sprayed 5,000 ppm at 4 cm; after 10 days; water control 20.0
[2] = test system: Beans (Phaseolus vulgaris); assay: Growth Inhibition and Defoliation/Beans; conditions: after 6 days; for Length in cm: average length of 3 beans, sprayed 5,000 ppm at 10 cm height, water control 17.0; for Number of leaves: defoliation, 3 beans per experiment, sprayed 5,000 ppm, water control 6
[3] = test system: Beans (Phaseolus); assay: Growth Inhibition/Beans (spray, 2,500 ppm); conditions: sprayed 2,500 ppm at 10 cm; after 6 days; versus untreated control
[4] = test system: linseed; assay: Growth Inhibition/Linseed Test; conditions: after three days, dark, 25°C; for % inhibition of the shoot with 50 ppm / % inhibition of the shoot with 250 ppm: Table A2
[5] = test system: tomato plants; assay: Acceleration of Fruit Ripeness/Tomato Plants; conditions: green, unripe fruits sprayed once with 5,000 ppm; water control 0
[6] = test system: Millet plants (Panicum miliaceum); assay: Growth Inhibition/Millet; conditions: after 6 days, water control 9.0
[7] = test system: bean plants; assay: Growth Inhibition/Beans (Watering Test); conditions: watered once, 10 kg/hectare; after 8 days; water control 25.0

SMILES	Length in cm [2] [cm]	Number of leaves [2]	% inhibition of the shoot with 2500 ppm [3] [%]	Acceleration of ripeness [5] [days]	further results
S=P(Cl)(CCCl)Oc1ccccc1 (centres unmarked)	11.5	0			Length in cm [1]: 5.0 cm
CCCCNP(=O)(Cl)CCCl (centres unmarked)			63		
S=P(Cl)(CCCl)Oc1ccccc1Cl (centres unmarked)			63		
S=P(Cl)(CCCl)Oc1cccc(Cl)c1 (centres unmarked)					% inhibition of the shoot with 50 ppm ([4]; shoot): 25%; % inhibition of the shoot with 250 ppm ([4]; shoot, 250 ppm): 50%
Cc1ccc(OP(=S)(Cl)CCCl)cc1 (centres unmarked)			55		
CC(C)NP(=S)(Cl)CCCl (centres unmarked)				15	% inhibition of the shoot with 50 ppm ([4]; shoot): 40%; % inhibition of the shoot with 250 ppm ([4]; shoot, 250 ppm): 54%
O=P(Cl)(CCCl)Oc1ccccc1 (centres unmarked)				14	
S=P(Cl)(CCCl)Oc1c(Cl)cccc1Cl (centres unmarked)			68		
CNP(=S)(Cl)CCCl (centres unmarked)	11.0	3		15	Length in cm [1]: 6.0 cm; Growth increase in cm ([6]; sprayed 1000 ppm at 4 cm): 4.0 cm; Growth increase in cm ([6]; sprayed 2000 ppm at 4 cm): 1.0 cm; Length in cm [7]: 14.0 cm
CC(C)NP(=O)(Cl)CCCl (centres unmarked)	11.0	3		17	% inhibition of shoot with 250 ppm ([4]; Table A1, shoot, 250 ppm, 100 percent = standstill of growth, 0 percent = untreated plant): 55%; % inhibition of root with 250 ppm ([4]; root, 250 ppm, 100 percent = standstill of growth, 0 percent = untreated plant): 85%; Length in cm [7]: 11.5 cm
